Test system: PNSCs
Experiment: Microtissue formation frequency and size according to HSA concentration
Type: cell-based
Conditions: 24 hours suspension culture
Procedure: The Example provides a method of controlling the formation, number, and size of the peripheral nerve-mimicking microtissue by controlling a concentration of human serum albumin (HSA) added in the suspension culture medium. PNSCs collected from the monolayer culture environment are suspended in a suspension culture medium at a density of 1.0E+06/mL. The suspension culture medium was prepared by adding 1 μM dexamethasone and 1 mM N-acetylcysteine in a DMEM/F12 culture medium. ULA 6-well culture vessel (SPL Life Sciences) was used for preparation of peripheral nerve-mimicking microtissues. 1.0×10^5 PNSCs per cm^2 area were seeded in ULA 6-well culture vessels. 3 mL of suspension culture medium including 0, 0.01, 0.1, and 1% HSA was added to the culture vessel and subjected to suspension culture for 24 hours. The number and size of the formed peripheral nerve-mimicking microtissue were measured by a photoplanimetry method using ImageJ.

## human serum albumin [HSA]
0.01, 0.1, and 1% HSA vs group without HSA
  formation frequency of microtissue formation: increased significantly
0.01, 0.1, and 1% HSA
  size of peripheral nerve-mimicking microtissue: increased significantly in proportion to the concentration
